Experimental data: paper PMC5909415 (ACS nano, 2015)

Tested on: cancer and normal cells
Assay: Cell viability assay
Format: cell-based, human
Conditions: 72 h

HSA: human serum albumin, carrier protein of the formulation
effect on viability of cancer and normal cells: not caused by HSA
